Laboratory results published in patent US9393232B2 (BeiGene, Ltd., priority 2013, dated 2016).

target: Recombinant human BRD4(1-477) (Homo sapiens (Human), UniProt O60885); experiment: BRD4 TR-FRET biochemical IC50 assay; type: binding; details: tetra-acetylated histone peptide

SMILES	IC50
COC(=O)[C@H]1CCCN1C1(c2ccccc2)C(=O)Nc2ccc(-c3c(C)noc3C)cc21 (stereo partly drawn) [Compound 2.54, (2R)-Methyl 1-(5-(3,5-dimethylisoxazol-4-yl)-2-oxo-3-phenylindolin-3-yl)pyrrolidine-2-carboxylate]	0.22 µM
Cc1noc(C)c1-c1ccc2c(c1)C(c1ccccc1)(N1CCCC(O)C1)C(=O)N2 (stereo not drawn) [Compound 2.15, 5-(3,5-dimethylisoxazol-4-yl)-3-(3-hydroxypiperidin-1-yl)-3-phenylindolin-2-one]	0.044 µM
COC(=O)[C@@H]1CCCN1C1(c2ccccc2)C(=O)Nc2ccc(-c3c(C)noc3C)cc21 (stereo partly drawn) [Compound 2.52, (2S)-1-Methyl 1-(5-(3,5-dimethylisoxazol-4-yl)-2-oxo-3-phenylindolin-3-yl)pyrrolidine-2-carboxylate]	0.19 µM
Cc1noc(C)c1-c1ccc2c(c1)C(c1ccccc1)(N1CCC[C@@H](O)C1)C(=O)N2 (stereo partly drawn) [Compound 2.17, 5-(3,5-dimethylisoxazol-4-yl)-3-((R)-3-hydroxypiperidin-1-yl)-3-phenylindolin-2-one]	0.04 µM
Cc1noc(C)c1-c1ccc2c(c1)C(c1ccccc1)(N1CCC[C@H](O)C1)C(=O)N2 (stereo partly drawn) [Compound 2.16, 5-(3,5-dimethylisoxazol-4-yl)-3-((S)-3-hydroxypiperidin-1-yl)-3-phenylindolin-2-one]	0.019 µM
Cc1noc(C)c1-c1ccc2c(c1)C(N[C@@H](C)CO)(c1ccccc1)C(=O)N2 (single isomer, unassigned) [Compound 2.9a]	0.86 µM
Cc1noc(C)c1-c1ccc2c(c1)C(c1ccsc1)(N1CCC[C@H](O)C1)C(=O)N2 (single isomer, unassigned) [Compound 4.10b]	0.019 µM
Cc1noc(C)c1-c1ccc2c(c1)C(N[C@@H](C)CO)(c1ccccc1)C(=O)N2 (single isomer, unassigned) [Compound 2.9b]	0.025 µM
Cc1noc(C)c1-c1ccc2c(c1)C(N[C@H](C)CO)(c1ccccc1)C(=O)N2 (single isomer, unassigned) [Compound 2.10b]	0.37 µM
